In PubChem BioAssay (NCI):
Some results for these compounds are left out of this collection, so the calls shown say nothing about other tests.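 Method: 48-hour compound exposure of cells in 96-well plates, five concentrations, linear interpolation of endpoints. GI50 marks 50% less growth. The concentration for full growth arrest is given as TGI.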

Experiments:
Assay in all cases: inhibition of tumour cell growth, NCI panel, 48 h
SF-295 CNS = test system: SF-295 CNS
K-562 leukemia = test system: K-562 leukemia
HL-60(TB) leukemia = test system: HL-60(TB) leukemia
SF-268 CNS = test system: SF-268 CNS
MDA-N = test system: MDA-N
NCI-H522 lung = test system: NCI-H522 lung
HS 578T breast = test system: HS 578T breast
OVCAR-3 ovarian = test system: OVCAR-3 ovarian
MDA-MB-231 breast = test system: MDA-MB-231 breast
ACHN renal = test system: ACHN renal
HOP-62 NSCLC = test system: HOP-62 NSCLC
TK-10 renal = test system: TK-10 renal
NCI-H226 lung = test system: NCI-H226 lung
EKVX NSCLC = test system: EKVX NSCLC
MCF7 breast = test system: MCF7 breast
UO-31 renal = test system: UO-31 renal
A498 renal = test system: A498 renal
M14 melanoma = test system: M14 melanoma
CAKI-1 renal = test system: CAKI-1 renal
PC-3 prostate = test system: PC-3 prostate
HOP-92 NSCLC = test system: HOP-92 NSCLC
LOX IMVI melanoma = test system: LOX IMVI melanoma
SK-OV-3 ovarian = test system: SK-OV-3 ovarian
OVCAR-4 ovarian = test system: OVCAR-4 ovarian
CCRF-CEM leukemia = test system: CCRF-CEM leukemia
SN12C renal = test system: SN12C renal
OVCAR-5 ovarian = test system: OVCAR-5 ovarian
BT-549 breast = test system: BT-549 breast
NCI/ADR-RES ovarian = test system: NCI/ADR-RES ovarian
SK-MEL-5 melanoma = test system: SK-MEL-5 melanoma
COLO 205 colon = test system: COLO 205 colon
SK-MEL-28 melanoma = test system: SK-MEL-28 melanoma
UACC-62 melanoma = test system: UACC-62 melanoma
HT29 colon = test system: HT29 colon
NCI-H322M lung = test system: NCI-H322M lung
SF-539 CNS = test system: SF-539 CNS
MALME-3M melanoma = test system: MALME-3M melanoma
SK-MEL-2 melanoma = test system: SK-MEL-2 melanoma
HCT-116 colon = test system: HCT-116 colon
DU-145 prostate = test system: DU-145 prostate
MDA-MB-435 = test system: MDA-MB-435
RXF 393 renal = test system: RXF 393 renal
T-47D breast = test system: T-47D breast
RPMI-8226 leukemia = test system: RPMI-8226 leukemia
SR leukemia = test system: SR leukemia
HCT-15 colon = test system: HCT-15 colon
SNB-75 CNS = test system: SNB-75 CNS
SNB-19 CNS = test system: SNB-19 CNS
MOLT-4 leukemia = test system: MOLT-4 leukemia
IGROV1 ovarian = test system: IGROV1 ovarian
A549 NSCLC = test system: A549 NSCLC
U251 CNS = test system: U251 CNS
UACC-257 melanoma = test system: UACC-257 melanoma
786-0 renal = test system: 786-0 renal
NCI-H23 lung = test system: NCI-H23 lung

`O=C(OC1CN2CCC1CC2)C(O)(Cc1ccccc1)C1CC1` (stereo not given) showed a GI50 (SF-295 CNS) greater than 100 µM, a TGI (SF-295 CNS) greater than 100 µM and a GI50 (K-562 leukemia) greater than 100 µM. For the same molecule, the TGI (K-562 leukemia) was greater than 100 µM, the GI50 (HL-60(TB) leukemia) was greater than 100 µM and the TGI (HL-60(TB) leukemia) was greater than 100 µM. For the same molecule, the GI50 (SF-268 CNS) was greater than 100 µM, the TGI (SF-268 CNS) was greater than 100 µM and the GI50 (MDA-N) was greater than 100 µM. The TGI (MDA-N) was greater than 100 µM, the GI50 (NCI-H522 lung) was greater than 100 µM and the TGI (NCI-H522 lung) was greater than 100 µM. The GI50 (HS 578T breast) was 33.3 µM, the TGI (HS 578T breast) was greater than 100 µM and the GI50 (OVCAR-3 ovarian) was greater than 100 µM. It also gave a TGI (OVCAR-3 ovarian) greater than 100 µM, a GI50 (MDA-MB-231 breast) greater than 100 µM and a TGI (MDA-MB-231 breast) greater than 100 µM. For the same molecule, the GI50 (ACHN renal) was greater than 100 µM, the TGI (ACHN renal) was greater than 100 µM and the GI50 (HOP-62 NSCLC) was greater than 100 µM. It also gave a TGI (HOP-62 NSCLC) greater than 100 µM, a GI50 (TK-10 renal) greater than 100 µM and a TGI (TK-10 renal) greater than 100 µM. For the same molecule, the GI50 (NCI-H226 lung) was greater than 100 µM, the TGI (NCI-H226 lung) was greater than 100 µM and the GI50 (EKVX NSCLC) was greater than 100 µM. The TGI (EKVX NSCLC) was greater than 100 µM, the GI50 (MCF7 breast) was greater than 100 µM and the TGI (MCF7 breast) was greater than 100 µM. For the same molecule, the GI50 (UO-31 renal) was greater than 100 µM, the TGI (UO-31 renal) was greater than 100 µM and the GI50 (A498 renal) was greater than 100 µM. The TGI (A498 renal) was greater than 100 µM, the GI50 (M14 melanoma) was greater than 100 µM and the TGI (M14 melanoma) was greater than 100 µM. It also gave a GI50 (CAKI-1 renal) greater than 100 µM, a TGI (CAKI-1 renal) greater than 100 µM and a GI50 (PC-3 prostate) greater than 100 µM. It also gave a TGI (PC-3 prostate) greater than 100 µM, a GI50 (HOP-92 NSCLC) greater than 100 µM and a TGI (HOP-92 NSCLC) greater than 100 µM. It also gave a GI50 (LOX IMVI melanoma) greater than 100 µM, a TGI (LOX IMVI melanoma) greater than 100 µM and a GI50 (SK-OV-3 ovarian) greater than 100 µM. The TGI (SK-OV-3 ovarian) was greater than 100 µM, the GI50 (OVCAR-4 ovarian) was greater than 100 µM and the TGI (OVCAR-4 ovarian) was greater than 100 µM. The GI50 (CCRF-CEM leukemia) was greater than 100 µM, the TGI (CCRF-CEM leukemia) was greater than 100 µM and the GI50 (SN12C renal) was greater than 100 µM. It also gave a TGI (SN12C renal) greater than 100 µM, a GI50 (OVCAR-5 ovarian) greater than 100 µM and a TGI (OVCAR-5 ovarian) greater than 100 µM. It also gave a GI50 (BT-549 breast) greater than 100 µM, a TGI (BT-549 breast) greater than 100 µM and a GI50 (NCI/ADR-RES ovarian) of 15 µM. The TGI (NCI/ADR-RES ovarian) was 28.4 µM, the GI50 (SK-MEL-5 melanoma) was greater than 100 µM and the TGI (SK-MEL-5 melanoma) was greater than 100 µM. For the same molecule, the GI50 (COLO 205 colon) was greater than 100 µM, the TGI (COLO 205 colon) was greater than 100 µM and the GI50 (SK-MEL-28 melanoma) was greater than 100 µM. The TGI (SK-MEL-28 melanoma) was greater than 100 µM, the GI50 (UACC-62 melanoma) was greater than 100 µM and the TGI (UACC-62 melanoma) was greater than 100 µM. The GI50 (HT29 colon) was greater than 100 µM, the TGI (HT29 colon) was greater than 100 µM and the GI50 (NCI-H322M lung) was greater than 100 µM. For the same molecule, the TGI (NCI-H322M lung) was greater than 100 µM, the GI50 (SF-539 CNS) was greater than 100 µM and the TGI (SF-539 CNS) was greater than 100 µM. For the same molecule, the GI50 (MALME-3M melanoma) was greater than 100 µM, the TGI (MALME-3M melanoma) was greater than 100 µM and the GI50 (SK-MEL-2 melanoma) was greater than 100 µM. For the same molecule, the TGI (SK-MEL-2 melanoma) was greater than 100 µM, the GI50 (HCT-116 colon) was greater than 100 µM and the TGI (HCT-116 colon) was greater than 100 µM. It also gave a GI50 (DU-145 prostate) greater than 100 µM, a TGI (DU-145 prostate) greater than 100 µM and a GI50 (MDA-MB-435) greater than 100 µM. For the same molecule, the TGI (MDA-MB-435) was greater than 100 µM, the GI50 (RXF 393 renal) was 97.7 µM and the TGI (RXF 393 renal) was greater than 100 µM. The GI50 (T-47D breast) was greater than 100 µM, the TGI (T-47D breast) was greater than 100 µM and the GI50 (RPMI-8226 leukemia) was greater than 100 µM. It also gave a TGI (RPMI-8226 leukemia) greater than 100 µM, a GI50 (SR leukemia) greater than 100 µM and a TGI (SR leukemia) greater than 100 µM. It also gave a GI50 (HCT-15 colon) greater than 100 µM, a TGI (HCT-15 colon) greater than 100 µM and a GI50 (SNB-75 CNS) of 80.6 µM. For the same molecule, the TGI (SNB-75 CNS) was greater than 100 µM, the GI50 (SNB-19 CNS) was greater than 100 µM and the TGI (SNB-19 CNS) was greater than 100 µM. For the same molecule, the GI50 (MOLT-4 leukemia) was greater than 100 µM, the TGI (MOLT-4 leukemia) was greater than 100 µM and the GI50 (IGROV1 ovarian) was greater than 100 µM. For the same molecule, the TGI (IGROV1 ovarian) was greater than 100 µM, the GI50 (A549 NSCLC) was greater than 100 µM and the TGI (A549 NSCLC) was greater than 100 µM. The GI50 (U251 CNS) was greater than 100 µM, the TGI (U251 CNS) was greater than 100 µM and the GI50 (UACC-257 melanoma) was greater than 100 µM. It also gave a TGI (UACC-257 melanoma) greater than 100 µM, a GI50 (786-0 renal) of 21.6 µM and a TGI (786-0 renal) of 46.1 µM. It also gave a GI50 (NCI-H23 lung) greater than 100 µM and a TGI (NCI-H23 lung) greater than 100 µM.
